The text below walks through data of patent US20040009197A1 (priority 2000, published 2004).

A short description of the series: UV spectrum: absorption maxima, molar extinction coefficient and K value. The following applies: Solvent system Ethanol. Format: physicochemical.

In turn, Diethanolamine methoxy hydroxycinnamate had a Max ads. of 285.
